Assay results published in patent US20020031799A1.

Chains of the proteins cited; added tags and fusions are not shown. Lines headed by an entry give the natural chain unless they say otherwise; changes in a name come on top.
UniProt P00451: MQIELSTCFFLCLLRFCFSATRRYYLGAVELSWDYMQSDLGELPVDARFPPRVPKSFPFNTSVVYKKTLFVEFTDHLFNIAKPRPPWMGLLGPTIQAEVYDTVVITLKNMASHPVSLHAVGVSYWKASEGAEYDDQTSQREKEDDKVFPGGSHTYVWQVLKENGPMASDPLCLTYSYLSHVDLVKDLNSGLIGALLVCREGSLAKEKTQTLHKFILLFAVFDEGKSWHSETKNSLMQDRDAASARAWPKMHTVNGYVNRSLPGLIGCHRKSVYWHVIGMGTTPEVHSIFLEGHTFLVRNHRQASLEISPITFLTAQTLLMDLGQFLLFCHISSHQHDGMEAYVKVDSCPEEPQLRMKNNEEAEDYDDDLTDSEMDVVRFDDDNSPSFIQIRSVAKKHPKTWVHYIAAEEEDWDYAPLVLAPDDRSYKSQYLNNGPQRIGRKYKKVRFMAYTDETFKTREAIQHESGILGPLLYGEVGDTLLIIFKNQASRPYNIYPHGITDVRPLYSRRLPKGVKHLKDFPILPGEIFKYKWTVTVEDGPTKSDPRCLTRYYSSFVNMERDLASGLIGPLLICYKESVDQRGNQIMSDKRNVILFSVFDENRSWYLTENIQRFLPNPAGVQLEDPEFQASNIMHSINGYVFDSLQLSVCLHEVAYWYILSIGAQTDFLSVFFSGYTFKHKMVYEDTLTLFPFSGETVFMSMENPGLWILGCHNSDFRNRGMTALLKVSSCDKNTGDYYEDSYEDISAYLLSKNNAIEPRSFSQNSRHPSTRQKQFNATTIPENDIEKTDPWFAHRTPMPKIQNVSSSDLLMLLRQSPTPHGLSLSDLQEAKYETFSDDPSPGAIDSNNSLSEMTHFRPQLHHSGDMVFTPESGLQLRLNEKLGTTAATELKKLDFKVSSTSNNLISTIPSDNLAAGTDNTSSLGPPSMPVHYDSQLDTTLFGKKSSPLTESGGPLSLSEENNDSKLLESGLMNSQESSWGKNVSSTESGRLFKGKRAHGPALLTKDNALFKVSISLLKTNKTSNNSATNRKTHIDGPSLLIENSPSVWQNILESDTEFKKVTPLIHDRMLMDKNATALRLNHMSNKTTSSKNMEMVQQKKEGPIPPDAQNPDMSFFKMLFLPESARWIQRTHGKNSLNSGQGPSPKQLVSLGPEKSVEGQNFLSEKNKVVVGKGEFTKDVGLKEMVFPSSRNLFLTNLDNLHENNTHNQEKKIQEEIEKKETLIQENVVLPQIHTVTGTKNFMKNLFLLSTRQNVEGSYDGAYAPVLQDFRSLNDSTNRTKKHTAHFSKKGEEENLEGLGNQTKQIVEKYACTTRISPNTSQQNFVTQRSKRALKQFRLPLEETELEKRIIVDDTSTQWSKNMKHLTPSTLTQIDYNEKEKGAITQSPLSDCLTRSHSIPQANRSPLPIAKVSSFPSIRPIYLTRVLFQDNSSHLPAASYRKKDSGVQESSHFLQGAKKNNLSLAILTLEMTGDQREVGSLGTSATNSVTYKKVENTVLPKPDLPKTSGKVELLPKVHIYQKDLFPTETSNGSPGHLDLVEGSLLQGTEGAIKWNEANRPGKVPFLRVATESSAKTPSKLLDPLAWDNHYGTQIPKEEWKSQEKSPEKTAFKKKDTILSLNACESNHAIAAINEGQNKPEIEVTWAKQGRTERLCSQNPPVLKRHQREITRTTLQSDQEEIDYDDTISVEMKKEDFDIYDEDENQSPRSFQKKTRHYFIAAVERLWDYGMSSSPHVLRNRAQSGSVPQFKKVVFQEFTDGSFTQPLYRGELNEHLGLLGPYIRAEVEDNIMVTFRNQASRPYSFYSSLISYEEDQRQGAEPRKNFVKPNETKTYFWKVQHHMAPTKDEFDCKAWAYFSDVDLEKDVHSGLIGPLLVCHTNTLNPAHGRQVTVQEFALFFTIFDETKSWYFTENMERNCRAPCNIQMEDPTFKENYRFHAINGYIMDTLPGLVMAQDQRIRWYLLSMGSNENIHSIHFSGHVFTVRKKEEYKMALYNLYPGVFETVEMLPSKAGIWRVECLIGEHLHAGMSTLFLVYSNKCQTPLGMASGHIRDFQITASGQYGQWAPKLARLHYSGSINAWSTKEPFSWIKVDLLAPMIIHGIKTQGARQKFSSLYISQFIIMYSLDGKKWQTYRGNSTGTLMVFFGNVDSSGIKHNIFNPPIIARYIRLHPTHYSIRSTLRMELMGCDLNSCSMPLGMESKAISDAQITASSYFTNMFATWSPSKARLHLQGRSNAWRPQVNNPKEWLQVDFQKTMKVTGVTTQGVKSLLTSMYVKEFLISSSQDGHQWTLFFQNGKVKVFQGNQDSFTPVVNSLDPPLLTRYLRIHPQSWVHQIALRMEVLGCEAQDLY
UniProt P00742, whole entry, looked up: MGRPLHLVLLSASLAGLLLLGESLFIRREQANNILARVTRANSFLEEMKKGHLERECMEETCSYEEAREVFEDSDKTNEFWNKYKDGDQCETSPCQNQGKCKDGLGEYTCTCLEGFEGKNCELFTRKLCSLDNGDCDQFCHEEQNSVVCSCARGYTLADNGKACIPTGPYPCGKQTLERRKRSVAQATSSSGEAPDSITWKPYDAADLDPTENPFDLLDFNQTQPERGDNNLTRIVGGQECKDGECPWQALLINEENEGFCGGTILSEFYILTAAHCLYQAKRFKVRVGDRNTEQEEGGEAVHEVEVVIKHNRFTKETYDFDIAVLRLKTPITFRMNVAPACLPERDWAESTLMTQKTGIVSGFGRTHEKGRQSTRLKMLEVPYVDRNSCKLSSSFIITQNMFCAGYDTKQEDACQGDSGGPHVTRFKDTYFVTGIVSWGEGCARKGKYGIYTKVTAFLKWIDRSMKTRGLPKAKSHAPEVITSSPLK

How the values were obtained:
[1] = biological target: FVIIIa (activated factor VIII) (UniProt P00451)
FX (factor X) = FX (factor X) (UniProt P00742)

For “R338A-FIXa (activated Factor IX with alanine at position 338)”, the “maximum rate of FX cleavage, fold against wt-FIXa” value [1] was 2.7 fold greater for activated R338A-FIX than for wt-FIXa, the Kcat, with FVIIIa 0.1 nM (FIXa-FVIIIa complex) (FX (factor X)) was 1.33 s⁻¹ and the Kcat, with FVIIIa 0.4 nM (FIXa-FVIIIa complex) (FX (factor X)) was 1.13 s⁻¹. For the same substance, the Kcat, without FVIIIa (FX (factor X)) was 0.0016 s⁻¹, the Kcat/Km, with FVIIIa 0.1 nM (FIXa-FVIIIa complex) (FX (factor X)) was 1.72e+08 M⁻¹ s⁻¹ and the Kcat/Km, with FVIIIa 0.4 nM (FIXa-FVIIIa complex) (FX (factor X)) was 9.24e+07 M⁻¹ s⁻¹. It also gave a Kcat/Km, without FVIIIa (FX (factor X)) of 29900 M⁻¹ s⁻¹, a Km, with FVIIIa 0.1 nM (FIXa-FVIIIa complex) (FX (factor X)) of 0.00772 µM and a Km, with FVIIIa 0.4 nM (FIXa-FVIIIa complex) (FX (factor X)) of 0.0122 µM. For the same substance, the Km, without FVIIIa (FX (factor X)) was 0.0535 µM, the Vmax, with FVIIIa 0.1 nM (FIXa-FVIIIa complex) (nM FXa min^-1) (FX (factor X)) was 2.47 and the Vmax, with FVIIIa 0.4 nM (FIXa-FVIIIa complex) (nM FXa min^-1) (FX (factor X)) was 5.42. For the same substance, the Vmax, without FVIIIa (nM FXa min^-1) (FX (factor X)) was 2.58.
